Test results published in article PMC9970268 (Cancer Research Communications, 2022).

Amino acid sequences for entries named in this document (tags omitted).
UniProt P33261, whole entry: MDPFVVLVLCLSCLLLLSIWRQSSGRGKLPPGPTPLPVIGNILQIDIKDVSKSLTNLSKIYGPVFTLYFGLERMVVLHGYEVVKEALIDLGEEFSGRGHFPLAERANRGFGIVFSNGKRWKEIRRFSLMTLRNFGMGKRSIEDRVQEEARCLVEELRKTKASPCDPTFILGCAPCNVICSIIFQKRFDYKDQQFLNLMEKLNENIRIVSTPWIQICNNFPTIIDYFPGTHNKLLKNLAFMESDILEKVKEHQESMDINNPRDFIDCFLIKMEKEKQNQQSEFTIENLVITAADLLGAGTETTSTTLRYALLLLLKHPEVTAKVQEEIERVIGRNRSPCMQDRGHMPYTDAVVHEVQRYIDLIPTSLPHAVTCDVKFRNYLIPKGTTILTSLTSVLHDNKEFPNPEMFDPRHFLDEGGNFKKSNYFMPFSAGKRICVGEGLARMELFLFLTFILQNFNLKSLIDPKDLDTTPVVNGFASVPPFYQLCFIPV

Target: T1, CYP2C19 (Homo sapiens, UniProt P33261)
T1 construct: purchased Promega
Assay: CyP450 enzyme assay (P450-Glo)
Format: in vitro ADME
Details: recombinant human CYP enzyme, 0.001–100 μmol/L
Experimental: The assay was carried out using P450-Glo Screening System (Promega). The system contained recombinant human CYP enzyme and P450 reductase (and cytochrome b5 for CYP2C9, 2C19, and 3A4), luminogenic substrates appropriate for each CYP enzyme, a NADPH regeneration system (containing NADP+), and luciferin detection reagent. Control membranes devoid of CYP activity were used as negative controls. Ketoconazole, troglitazone and sulfaphenazole were used as positive controls. These compounds and organic solvents acetonitrile, and DMSO were purchased from Sigma-Aldrich.
First, 12.5 μL of the 4X stock solution of test compounds or positive controls (appropriate for each enzyme) were added to the “treated” wells. For the “untreated” (the values from these wells represent total CYP activity) and “minus-P450 control” wells (the values from these wells represent the CYP-independent background luminescence of the assay), 12.5 μL of vehicle was added. […] Before reading, the plate was incubated at room temperature for 20 minutes to stabilize the luminescent signal. The luminescence was measured using an Infinite F200 plate reader (Tecan). […]

- IC50: 3.42 µM
SMILES: Cc1c(C)c2c(c(C)c1O)CCC(C)(COc1ccc(CC3SC(=O)NC3=O)cc1)O2 (stereo not shown) [Troglitazone, troglitazone, reference compound]
